Article PMC8623215, “Zhaoshumycins A and B, Two Unprecedented Antimycin-Type Depsipeptides Produced by the Marine-Derived Streptomyces sp. ITBB-ZKa6” (Marine Drugs, 2021)

System: MCF7 human breast cancer cell line
Experiment: Cytotoxic activity test, MTT method, MCF7 cells
Assay type: cell-based
Settings: preliminary in vitro test
Excerpt: To obtain preliminary information of the cytotoxic activity of compounds 1–6, we assessed their toxicity toward the MCF7 human breast cancer cell line. […] To further understand the structure–activity relationship, we speculated that the loss of toxicity for compounds 1–4 in MCF7 cells could be potentially attributed to the derivatization of the NH2 group at C-34, clearly signifying its importance in biological activity.
The cytotoxic activity of compounds 1–6 was in vitro evaluated using the human breast cancer cell line MCF7 (purchased from the Jiangsu Provincial Center for Disease Prevention and Control) according to the previously reported MTT method. Dimethyl sulfoxide (DMSO) was used to dissolve the tested compounds.

Substance: neoantimycin E [Compound 6]
- cytotoxic activity (in words): weak cytotoxic activity
